Membrane permeability of cyclic peptides

Data: CycPeptMPDB; original report Townsend et al. 2020, doi:10.26434/chemrxiv.13335941.v1.

PAMPA is the parallel artificial membrane permeability assay, which has no cells and reads passive diffusion.
Permeability is in 10^-6 cm/s, converted from the database's log10 values; higher is more permeable.

compound,PAMPA (10^-6 cm/s)
CC(C)C[C@@H]1NC(=O)[C@@H]2CCCN2C(=O)[C@H](CC(C)C)NC(=O)[C@H](CC(C)C)N(C)C(=O)[C@H](C)N(C)C(=O)[C@H](Cc2ccccc2)NC1=O,1.1
CC(C)C[C@@H]1C(=O)N[C@H](CC(C)C)C(=O)N2CCC[C@@H]2C(=O)N[C@H](CC(C)C)C(=O)N[C@@H](Cc2ccccc2)C(=O)N2CCC[C@@H]2C(=O)N(C)[C@@H](C)C(=O)N1C,2.2
CC(C)C[C@H]1NC(=O)[C@H]2CCCN2C(=O)C[C@H](Cc2ccccc2)NC(=O)[C@H](CC(C)C)N(C)C(=O)[C@H](C)NC(=O)[C@H](Cc2ccccc2)NC1=O,0.49
CC(C)C[C@@H]1NC(=O)[C@H]2CCCN2C(=O)[C@@H](CC(C)C)N(C)C(=O)[C@@H](CC(C)C)NC(=O)[C@H](C)N(C)C(=O)[C@H](Cc2ccccc2)NC1=O,1.9
CCCN1CC(=O)N[C@@H](CC(C)C)C(=O)N(Cc2ccccc2)CC(=O)N2CCC[C@H]2C(=O)N(C)[C@H](CC(C)C)C(=O)N[C@@H](Cc2ccccc2)C1=O,15
CC(C)C[C@@H]1NC(=O)[C@@H](C)N(C)C(=O)[C@@H]2CCCN2C(=O)[C@H](Cc2ccccc2)NC(=O)CN(Cc2ccccc2)C(=O)[C@@H]2CCCN2C(=O)[C@@H](CC(C)C)N(C)C1=O,1.3
CCCN1CC(=O)N(Cc2ccccc2)CC(=O)N(C)[C@@H](CC(C)C)C(=O)N2CCC[C@@H]2C(=O)N[C@@H](CC(C)C)C(=O)N[C@@H](Cc2ccccc2)C(=O)N2CCC[C@@H]2C1=O,5.4
CCCN1CC(=O)N[C@H](CC(C)C)C(=O)N[C@@H](CC(C)C)C(=O)N2CCC[C@H]2C(=O)N(C)[C@@H](CC(C)C)C(=O)N[C@@H](Cc2ccccc2)C(=O)N2CCC[C@@H]2C1=O,6.3
CC(C)C[C@H]1NC(=O)[C@@H](C)N(C)C(=O)[C@H]2CCCN2C(=O)[C@H](Cc2ccccc2)NC(=O)[C@H](CC(C)C)N(C)C(=O)[C@H]2CCCN2C(=O)[C@@H](CC(C)C)NC1=O,1.2
CC(C)C[C@@H]1C(=O)N[C@@H](Cc2ccccc2)CC(=O)N2CCC[C@H]2C(=O)N[C@H](CC(C)C)C(=O)N[C@@H](Cc2ccccc2)C(=O)N2CCC[C@@H]2C(=O)N[C@@H](C)C(=O)N1C,0.46
CCCN1CC(=O)N(C)[C@H](CC(C)C)C(=O)N(C)[C@H](CC(C)C)C(=O)N2CCC[C@@H]2C(=O)N(Cc2ccccc2)CC(=O)N[C@@H](Cc2ccccc2)C(=O)N2CCC[C@@H]2C1=O,2.6
CCCN1CC(=O)N[C@@H](CC(C)C)C(=O)N(Cc2ccccc2)CC(=O)N2CCC[C@H]2C(=O)N[C@H](CC(C)C)C(=O)N[C@@H](Cc2ccccc2)C1=O,2.2
CC(C)C[C@@H]1NC(=O)[C@@H]2CCCN2C(=O)CN(Cc2ccccc2)C(=O)[C@@H](CC(C)C)N(C)C(=O)[C@H](C)NC(=O)[C@@H]2CCCN2C(=O)[C@H](Cc2ccccc2)NC1=O,0.89
CC(C)C[C@@H]1C(=O)N[C@@H](Cc2ccccc2)C(=O)N2CCC[C@H]2C(=O)N[C@@H](C)C(=O)N(C)[C@@H](CC(C)C)C(=O)N[C@@H](Cc2ccccc2)CC(=O)N2CCC[C@H]2C(=O)N1C,0.63
CC(C)C[C@@H]1C(=O)N(C)[C@@H](CC(C)C)C(=O)N2CCC[C@H]2C(=O)N(C)[C@@H](CC(C)C)C(=O)N[C@@H](Cc2ccccc2)C(=O)N2CCC[C@@H]2C(=O)N[C@@H](C)C(=O)N1C,0.93

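Conditions beyond the assay type are not listed; see the original paper. The list need not hold all peptides of the study. Entries at the database's floor value (log10 P of -10) are not listed.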